Here are results for six molecules from the OPERA property sets (Mansouri et al. 2018).

The molecule `CCNOc1c([N+](=O)[O-])cc([N+](=O)[O-])cc1[N+](=O)[O-]` registered a logP of 1.03. As for `CC(C)NOc1c([N+](=O)[O-])cc([N+](=O)[O-])cc1[N+](=O)[O-]`, the logP was determined as 1.37. `CN(C)Oc1c([N+](=O)[O-])cc([N+](=O)[O-])cc1[N+](=O)[O-]` displayed a logP of 0.76. `O=[N+]([O-])c1cc([N+](=O)[O-])c(ONCC(F)(F)F)c([N+](=O)[O-])c1` registered a logP of 1.39. The same measure for `CN(CC(F)(F)F)Oc1c([N+](=O)[O-])cc([N+](=O)[O-])cc1[N+](=O)[O-]`: 1.37; for `CCCNOc1c([N+](=O)[O-])cc([N+](=O)[O-])cc1[N+](=O)[O-]`: 1.5.
